{"sequences": {"note": "Chains of the proteins cited; added tags and fusions are not shown.", "UniProt Q13526, whole entry": "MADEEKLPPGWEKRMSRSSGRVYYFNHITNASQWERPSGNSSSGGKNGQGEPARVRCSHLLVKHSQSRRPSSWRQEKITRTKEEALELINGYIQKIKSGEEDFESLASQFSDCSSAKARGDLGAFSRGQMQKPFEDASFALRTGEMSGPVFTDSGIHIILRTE"}, "source": "patent US11129835B2", "about": "“Methods and compositions for the inhibition of PIN1” (Beth Israel Deaconess Medical Center, Inc., priority 2012, dated 2021)", "key": {"Pin1 [1]": {"molecular_target": "T1, Pin1 (Homo sapiens, UniProt Q13526)", "assay": "Pin1 fluorescence polarization competition assay, primary qHTS (HiFluor-488 / Alexa488 probe);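 also: Pin1 protein with fluorescent peptide probe, compound displacement read by fluorescence polarization, percent inhibition derived from corrected polarization values, concentration-response curves in 1536-well format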"}, "Pin1 [2]": {"molecular_target": "T1, Pin1", "assay": "Pin1 fluorescence polarization competition assay with Tamra-probe (secondary)"}, "Pin1 [3]": {"molecular_target": "T1, Pin1", "assay": "confirmatory Pin1 fluorescence polarization competition assay (Alexa488 reconfirmed);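 also: Pin1 competition with a HiFluor488-labelled peptide probe, read as fluorescence polarization after 10 min at room temperature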"}}, "data": [{"smiles": "O=C(O)c1cccc2c1NC(C(=O)O)C1CC(Sc3ccccc3[N+](=O)[O-])C(Cl)C21", "note": "(stereo not shown) [Compound 3]", "values": [{"measurement": "IC50", "setting": "Pin1 [1]; Alexa488 Primary Potency, primary qHTS", "value": 10, "unit": "µM"}, {"measurement": "IC50", "setting": "Pin1 [1]; Average HTS Potency, average over Alexa488 primary, Alexa488 reconfirmed and Tamra secondary assays", "value": 6, "unit": "µM"}, {"measurement": "IC50", "setting": "Pin1 [2]", "value": 5, "unit": "µM"}, {"measurement": "IC50", "setting": "Pin1 [3]", "value": 3, "unit": "µM"}]}]}
